Tested on: Poinsettia (e.g. variety Merlot)
Experiment: Plant compatibility (phytotoxicity) on indicator plant
Assay type: in vivo
Details: 1 g/L, within one day
Text: The plant compatibility of fatty acid derivatives according to formula (I) was checked using Poinsettia (e.g. variety Merlot) as indicator plant. If no necroses or other phytotoxicity symptoms, such as leaf curl-up or deformations were observed the substance is considered plant compatible and not phytotoxic.

ethoxylated lauryl alcohol
phytotoxicity symptoms (necroses, leaf curl-up, deformations): strong distinct necroses

Reference: patent US20220183282A1, “Fatty Acid Derivatives For Improving The Effect Of Agrochemical Actives” (priority 2019, published 2022)
